{"source": "patent EP0950398A2", "about": "“Use of esters as dispersants or solvents in sunscreens and solar protection pigments” (Henkel Kommanditgesellschaft auf Aktien, priority 1998, dated 1999)", "assay_type": "physicochemical", "conditions": "result in words, comparison of all tested oil bodies", "data": [{"smiles": "CCCCOC(=O)CCCCC(=O)OCCCC", "note": "[Dibutyl Adipate]", "values": [{"measurement": "Löslichkeit für die verschiedenen Filtertypen", "result": "beste Löslichkeit"}]}]}
